Literature values as cited in patent US20250114351A1, “5-HT2C RECEPTOR MODULATING AGENTS FOR THE TREATMENT OF NEURODEGENERATIVE, MENTAL, COGNITIVE AND AUTOIMMUNE CNS DISORDERS” (priority 2022, published 2025).

Amino acid sequences for entries named in this document (tags omitted). Residues count along the entry.
UniProt P28223, whole entry, species assumed: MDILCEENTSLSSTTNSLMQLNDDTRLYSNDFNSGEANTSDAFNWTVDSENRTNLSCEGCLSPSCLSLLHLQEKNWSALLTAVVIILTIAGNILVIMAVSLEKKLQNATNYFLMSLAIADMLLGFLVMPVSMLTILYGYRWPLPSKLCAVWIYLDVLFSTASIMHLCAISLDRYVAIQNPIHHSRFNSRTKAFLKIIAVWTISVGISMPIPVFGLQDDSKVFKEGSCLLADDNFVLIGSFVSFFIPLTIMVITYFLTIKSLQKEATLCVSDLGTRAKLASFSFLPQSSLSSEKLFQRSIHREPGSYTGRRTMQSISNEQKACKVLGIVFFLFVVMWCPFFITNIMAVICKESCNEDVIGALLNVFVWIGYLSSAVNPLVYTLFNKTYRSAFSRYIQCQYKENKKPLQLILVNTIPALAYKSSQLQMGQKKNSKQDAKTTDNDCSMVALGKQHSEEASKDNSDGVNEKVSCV
UniProt P41595, whole entry, species assumed: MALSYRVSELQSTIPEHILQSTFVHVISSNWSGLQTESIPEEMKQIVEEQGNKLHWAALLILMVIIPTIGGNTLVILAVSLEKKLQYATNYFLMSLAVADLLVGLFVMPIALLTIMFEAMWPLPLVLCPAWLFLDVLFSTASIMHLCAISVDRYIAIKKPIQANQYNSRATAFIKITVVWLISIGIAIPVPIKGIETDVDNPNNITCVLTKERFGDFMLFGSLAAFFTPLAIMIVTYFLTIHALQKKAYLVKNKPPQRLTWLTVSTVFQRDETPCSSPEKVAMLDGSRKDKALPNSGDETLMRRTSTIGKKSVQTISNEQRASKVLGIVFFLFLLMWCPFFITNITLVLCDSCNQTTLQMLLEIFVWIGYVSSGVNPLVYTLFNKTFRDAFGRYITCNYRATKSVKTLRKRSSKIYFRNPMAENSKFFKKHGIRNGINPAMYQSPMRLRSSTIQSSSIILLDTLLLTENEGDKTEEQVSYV
UniProt P28335, 33-458, species assumed: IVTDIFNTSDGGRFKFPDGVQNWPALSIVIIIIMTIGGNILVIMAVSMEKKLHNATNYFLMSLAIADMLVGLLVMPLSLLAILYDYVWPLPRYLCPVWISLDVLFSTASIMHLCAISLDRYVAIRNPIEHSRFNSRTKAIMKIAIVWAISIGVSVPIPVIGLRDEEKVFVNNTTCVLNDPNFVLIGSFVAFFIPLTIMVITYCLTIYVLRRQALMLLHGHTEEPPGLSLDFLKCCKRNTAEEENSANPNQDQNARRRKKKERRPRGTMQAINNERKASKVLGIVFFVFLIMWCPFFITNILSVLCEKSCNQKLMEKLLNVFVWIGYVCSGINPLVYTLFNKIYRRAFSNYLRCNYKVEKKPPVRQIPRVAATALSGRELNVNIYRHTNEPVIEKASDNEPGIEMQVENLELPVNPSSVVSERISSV

Tests used:
Details in all cases: cited from earlier work
5-HT2A = 5-HT2A (Homo sapiens, UniProt P28223)
5-HT2B = 5-HT2B (Homo sapiens, UniProt P41595)
5-HT2C = 5-HT2C (Homo sapiens, UniProt P28335)

Which results are given for `Clc1cccc(N2CCNCC2)c1` [mCPP, m-Chlorophenylpiperazine]?
5-HT2A Emax (5-HT2A): 18 ± 2%; EC50 (5-HT2A): 0.15 ± 0.02 µM; 5-HT2B Emax (5-HT2B): 21 ± 9%; EC50 (5-HT2B): 0.093 ± 0.05 µM; 5-HT2C Emax (5-HT2C): 63 ± 3%; EC50 (5-HT2C; read-out: S-HT2C EC50): 0.12 ± 0.01 µM
